Experimental data published in patent US20070286846A1, “Novel methods for ester detoxication” (published 2007).

Protein sequences, listed by entry. Tags and fused reporters are not part of them. Lines headed by an entry give the natural chain unless they say otherwise; changes in a name come on top.
UniProt P06276: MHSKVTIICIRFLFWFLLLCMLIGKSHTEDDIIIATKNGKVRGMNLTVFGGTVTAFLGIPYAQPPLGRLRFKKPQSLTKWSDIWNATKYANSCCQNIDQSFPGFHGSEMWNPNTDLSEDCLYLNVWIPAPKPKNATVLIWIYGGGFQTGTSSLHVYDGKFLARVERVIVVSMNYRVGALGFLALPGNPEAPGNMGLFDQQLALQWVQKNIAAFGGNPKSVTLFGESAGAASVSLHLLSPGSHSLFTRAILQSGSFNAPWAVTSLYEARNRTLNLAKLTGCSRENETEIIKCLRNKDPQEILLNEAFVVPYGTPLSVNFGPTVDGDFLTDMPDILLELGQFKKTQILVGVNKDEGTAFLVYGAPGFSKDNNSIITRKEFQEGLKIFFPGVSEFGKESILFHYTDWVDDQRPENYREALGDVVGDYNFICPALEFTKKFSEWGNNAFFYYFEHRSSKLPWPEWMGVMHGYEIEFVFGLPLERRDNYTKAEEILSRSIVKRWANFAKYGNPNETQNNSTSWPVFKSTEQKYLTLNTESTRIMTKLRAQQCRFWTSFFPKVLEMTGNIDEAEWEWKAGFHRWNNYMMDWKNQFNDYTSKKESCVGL

Experiments:
[1] = test system: Monkey BchE (RhBchE); assay: Ki on BchI hydrolysis inhibition, Monkey BchE; details: for Ki: read-out: Ki, Monkey BchE, BchI hydrolysis inhibition, 50 mM potassium phosphate, pH 7.4, 25° C.
[2] = molecular target: Human BchE (HuBchE) (Homo sapiens, UniProt P06276); assay: Ki on BchI hydrolysis inhibition, Human BchE; details: read-out: Ki, Human BchE, 50 mM potassium phosphate, pH 7.4, 25° C.

Row | Substance | inhibition of BchI hydrolysis ([1]; concentration tested 0-100 μM) | fold higher Ki for RhBchE than HuBchE ([1]; from Table 3) | Ki [1] | Ki [2] | fold higher affinity for RhBchE than HuBchE ([1]; from Ki values) | fold lower Ki for RhBchE than HuBchE ([1]; from Table 3)
1 | (−)-Ecgonine methyl ester | did not inhibit | – | – | – | – | –
2 | (−)-norcocaine | – | 2 fold | 119 µM | 43 µM | – | –
3 | (−)-cocaine | – | – | 4.7 µM | 13.6 µM | about 2.9 fold | 3 fold
4 | (+)-cocaine | – | 2 fold | 15.3 µM | 8 µM | – | –
